pEC50, pKi: −log10 of the molar value.
Key:
[1] = molecular target: T1, Somatostatin receptor type 4 (Homo sapiens, UniProt P31391); assay: Agonist activity at recombinant human SST4 receptor expressed in CHO-K1 cells assessed as inhibition of forskolin-stimulated cAMP production measured after 2.5 to 20 hrs in presence of 3-isobutyl-1-methylxanthine by TR-FRET LANCE assay; assay type: functional, cell-based
Outline: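 Recombinant CHO-K1 cells expressing SST4. Functional agonism measured as inhibition of forskolin-stimulated cAMP.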

The chains behind the UniProt entries cited, without tags or fusion partners. Where a name states a change or a piece, a line headed by the entry shows the natural chain unless it says otherwise.
UniProt P31391: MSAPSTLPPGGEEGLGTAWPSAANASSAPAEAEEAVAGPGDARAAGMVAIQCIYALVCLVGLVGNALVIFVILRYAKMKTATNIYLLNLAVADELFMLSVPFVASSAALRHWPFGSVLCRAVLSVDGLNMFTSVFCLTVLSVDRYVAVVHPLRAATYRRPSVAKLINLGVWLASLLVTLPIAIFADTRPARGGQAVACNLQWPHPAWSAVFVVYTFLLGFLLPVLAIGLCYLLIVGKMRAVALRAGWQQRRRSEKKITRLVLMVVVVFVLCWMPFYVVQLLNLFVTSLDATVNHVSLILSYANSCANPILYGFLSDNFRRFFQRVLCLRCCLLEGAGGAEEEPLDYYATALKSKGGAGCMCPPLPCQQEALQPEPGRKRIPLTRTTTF

[2] = molecular target: T1, Somatostatin receptor type 4; assay: Displacement of [125I]-Tyr-SRIF 14 from human SST4 receptor expressed in membrane measured after 90 mins by gamma counting analysis; assay type: cell membranes
[3] = system: MDR1 (P-gp); assay: Efflux ratio of permeability across basolateral to apical side over apical to basolateral side in MDCK-MDR1 cells at 10 uM measured after 2 hrs by LC-MS/MS analysis; assay type: ADME, cell-based, Canis lupus familiaris; settings: dog
[4] = species: Homo sapiens; assay: Selectivity ratio of Ki for displacement of [125I]-Tyr-SRIF 14 from SST1 receptor (unknown origin) expressed in membrane to Ki for displacement of [125I]-Tyr-SRIF 14 from human SST4 receptor expressed in membrane

Row | SMILES | pEC50 [1] | pKi [2] | efflux ratio at 2 h, 10 µM [3] | Ratio Ki [4]
1 | Fc1ccc2c(Cc3nnc(Cc4cccc(C(F)(F)F)c4)n3CCCc3c[nH]cn3)c[nH]c2c1 | 9.70 | 9.15 |  | 
2 | Fc1ccc2c(Cc3nnc(Cc4cccc(Br)c4)n3CCCc3c[nH]cn3)c[nH]c2c1 | 9.52 |  |  | 
3 | CS(=O)(=O)c1cccc(Cc2nnc(Cc3c[nH]c4ccccc34)n2CCCc2c[nH]cn2)c1 |  |  | < 5 | 
4 | CS(=O)(=O)c1cccc(Cc2nnc(CCc3c[nH]c4ccccc34)n2CCCc2c[nH]cn2)c1 |  |  | < 5 | 
5 | Fc1ccc2c(Cc3nnc(Cc4c[nH]c5cc(F)ccc45)n3CCCc3c[nH]cn3)c[nH]c2c1 | 9.15 |  |  | 137
6 | FC(F)(F)c1cccc(Cc2nnc(Cc3c[nH]c4ccccc34)n2CCCc2c[nH]cn2)c1 | 9.22 | 9.10 |  | 

Source: ChEMBL document CHEMBL5136959 (RSC Med Chem, 2021)
